Literature values, collected in article PMC10301092, “New Insights into the Opioid Analgesic Profile of cis-(−)-N-Normetazocine-derived Ligands” (Molecules, 2023).

Amino acid sequences for entries named in this document (tags omitted).
UniProt P35372, whole entry: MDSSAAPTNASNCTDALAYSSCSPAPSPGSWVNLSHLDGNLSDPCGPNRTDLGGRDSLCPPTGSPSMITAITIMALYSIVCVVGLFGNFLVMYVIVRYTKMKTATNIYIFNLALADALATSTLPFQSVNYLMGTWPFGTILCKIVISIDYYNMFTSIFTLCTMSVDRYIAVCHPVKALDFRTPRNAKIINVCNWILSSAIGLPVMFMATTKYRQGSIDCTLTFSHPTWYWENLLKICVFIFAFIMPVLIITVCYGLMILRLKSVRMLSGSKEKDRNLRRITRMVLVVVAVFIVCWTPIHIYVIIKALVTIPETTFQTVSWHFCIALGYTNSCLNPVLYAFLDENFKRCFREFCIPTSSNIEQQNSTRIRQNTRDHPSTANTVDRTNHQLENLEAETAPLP

Columns and labels:
μ opioid receptor (MOR) = μ opioid receptor (MOR) (Homo sapiens, UniProt P35372); details: cited from earlier work; for Ki: read-out: Ki (nM) ± SD MOR
MOR = details: cited from earlier work

Row | SMILES | Ki (μ opioid receptor (MOR)) | pKi (μ opioid receptor (MOR); read-out: Ki MOR) | antagonist affinity (pA2) (MOR) | increase in Ki value at MOR relative to LP1 (μ opioid receptor (MOR))
1 | C[C@H]1[C@H]2Cc3ccc(O)cc3[C@]1(C)CCN2CCC(=O)NCc1ccccc1 | 105 nM | – | – | –
2 | C[C@H]1[C@H]2Cc3ccc(O)cc3[C@]1(C)CCN2CCC(=O)Nc1cccc2ccccc12 | – | 7.42 | 8.6 nM | –
3 | C[C@H]1[C@H]2Cc3ccc(O)cc3[C@]1(C)CCN2CCC(=O)NC1CCCCC1 | 56 nM | – | – | 60 fold

pKi: −log10 of the molar value. Like-named read-outs stand apart in the source and are kept apart here.
